The source of these data is article PMC5541792, “Simultaneous Determination of 11 Compounds in Gualou Guizhi Granule and Pharmacokinetics Study by UPLC-MS/MS” (Journal of Analytical Methods in Chemistry, 2017).

The nature of data set [1]: Stability of analytes in rat plasma samples (method validation). Format: in vitro ADME. The following applies: n = 6; for Autosampler stability (24 h) Mean: 4°C for 24 h; for Stability (24 h at room temperature) Mean: 25°C for 24 h; for Freeze-thaw stability (3 cycles) Mean: three freeze-thaw cycles at −80°C. The procedure: Stability of the analytes from plasma samples was performed by determining three different concentrations (low, middle, and high samples) in six replicates under different conditions. It included short-term stability which was assessed by keeping samples at room temperature (25°C) for 24 h, stability which was measured using samples stored at 4°C for 24 h, and freeze-thaw stability that was determined after three freeze-thaw cycles at −80°C.

Data set [2] in a line: Pharmacokinetic study in rats after oral administration of GLGZG (UPLC-MS/MS of plasma). Format: in vivo. The following applies: rat plasma, male SD rats, oral GLGZG 3.6 g·(kg·day)^−1, n = 6. The procedure:
Chromatographic separation was performed on an Waters CORTECS C18 (2.1 × 100 mm, 1.6 μm) with the column temperature at 45°C. The mobile phase was composed of 0.1% formic acid in water (A) and acetonitrile (B) with a gradient program (0–0.5 min from 8% to 10% B; 0.5–2.5 min from 10% to 15% B; 2.5–4.0 min from 15% to 60% B; 4.0–5.0 min from 60% to 95% B; 5.0–6.5 min 95% B). The flow rate was 0.25 mL/min and the injection volume was 1 μL.
Mass spectrometry was operated using a Waters (Milford, MA) Xevo TQMS with an electrospray ion source (ESI) in the negative ion multiple reaction monitoring (MRM) mode. The other detailed MS parameters were as follows: drying gas: N2 (purity of 99.9%), 15 L/min, nebulizing gas: 50 L/min, capillary voltage: 2.5 kv.
Plasma samples (100 μL of plasma) and IS working solutions (10 μL of swertiamarin, kaempferol-3-O-rutinoside, and ginsenoside Rb1) were combined and briefly vortex-mixed for 3 min followed by the addition of 4-fold acetonitrile. Then the mixture was centrifuged at 12000 rpm for 10 min. The supernatant was transferred to a clean tube and concentrated up to dryness; the residue was dissolved in 100 μL 50% methanol. Finally, 1 μL aliquot was injected into UPLC-MS/MS system for analysis.
Six male SD rats, weighing 250 ± 20 g, were provided by Experimental Animal Research Center of Fujian TCM University (Fuzhou, China). And they were housed at controlled environmental conditions (temperature: 23 ± 2°C, relative humidity: 55 ± 10%) with free access to standard laboratory food and water. The rats were fasted for 12 h but with access to water before being given GLGZG (3.6 g·(kg·day)^−1). Blood samples of 0.3 mL were collected in heparin containing tubes from epicanthic veins of rats by capillary tube before dose (0 h) and at 5 min, 10 min, 20 min, 0.5 h, 1 h, 1.5 h, 2 h, 3 h, 6 h, 9 h, and 12 h. Then they were centrifuged at 12000 rpm for 10 min. The supernatant liquor was collected and frozen at −20°C until use.
The validated UPLC-MS/MS method was successfully applied to the PK studies of eleven analytes following oral administration of GLGZG to individual male rats (n = 6). The main pharmacokinetic parameters were summarized in Table 8 and the mean plasma concentration-time profiles of the eleven analytes were illustrated in Figure 3.

The mark [3] stands for this setting: middle QC nominal concentration.

Regarding `O=C(/C=C/c1ccc(O[C@@H]2O[C@H](CO)[C@@H](O)[C@H](O)[C@H]2O)cc1)c1ccc(O)cc1O` [Isoliquiritin, isoliquiritin], the “Autosampler stability (24 h) Mean” value in data set [1] (low QC nominal concentration) was determined as 105.18%. The “Stability (24 h at room temperature) Mean” value was determined as 98.59% in data set [1] (high QC nominal concentration) and 100.74% in data set [1] (low QC nominal concentration).
For `O=C1C[C@@H](c2ccc(O[C@@H]3O[C@H](CO)[C@@H](O)[C@H](O)[C@H]3O)cc2)Oc2cc(O)ccc21` [Liquiritin, liquiritin], the “Autosampler stability (24 h) Mean” value in data set [1] (low QC nominal concentration) was found to be 112.48%. Moreover, the “Stability (24 h at room temperature) Mean” value in data set [1] (setting [3]) was found to be 110.81%.
As to isoliquiritin apioside, in data set [1] (high QC nominal concentration), the “Autosampler stability (24 h) Mean” value is recorded as 112.48%, the “Stability (24 h at room temperature) Mean” value amounted to 98.59% and the “Freeze-thaw stability (3 cycles) Mean” value is reported as 96.66%. In addition, in data set [1] (low QC nominal concentration), the “Autosampler stability (24 h) Mean” value was 102.25%, the “Stability (24 h at room temperature) Mean” value was determined as 101.13% and the “Freeze-thaw stability (3 cycles) Mean” value came to 109.53%. In data set [1] (setting [3]), the “Autosampler stability (24 h) Mean” value is given as 106.88%, the “Stability (24 h at room temperature) Mean” value came to 101.45% and the “Freeze-thaw stability (3 cycles) Mean” value was 93.01%. Also, in data set [2], the “AUC(0–∞)” value came to 18.90 ± 3.20 mg·L/min, the “MRT(0–∞)” value was 5.2583 ± 0.7327 h, the “T 1/2z” value stood at 4.077 ± 0.5693 h and the T max turned out to be 0.5833 ± 0.2042 h. Also, the Vz/F in data set [2] came to 378.57 ± 56.73 L/kg.
For “liquiritin apioside [Liquirtin apioside]”, in data set [1] (high QC nominal concentration), the “Autosampler stability (24 h) Mean” value is given as 105.23%, the “Stability (24 h at room temperature) Mean” value amounted to 104.43% and the “Freeze-thaw stability (3 cycles) Mean” value is 94.78%. Also, in data set [1] (low QC nominal concentration), the “Autosampler stability (24 h) Mean” value is on record as 95.66%, the “Stability (24 h at room temperature) Mean” value came out at 111.24% and the “Freeze-thaw stability (3 cycles) Mean” value was 107.20%. In data set [1] (setting [3]), the “Autosampler stability (24 h) Mean” value stood at 90.88%, the “Stability (24 h at room temperature) Mean” value turned out to be 96.07% and the “Freeze-thaw stability (3 cycles) Mean” value is recorded as 93.95%. For the same compound, in data set [2], the “AUC(0–∞)” value was found to be 44.70 ± 9.12 mg·L/min, the “MRT(0–∞)” value was 5.3248 ± 1.029 h, the “T 1/2z” value amounted to 3.9105 ± 1.012 h and the T max worked out at 0.5 ± 0 h. In data set [2], the Vz/F is 152.93 ± 31.84 L/kg.
